From PubChem BioAssay (Tox21)
Several values for one entry are separate records, joined by “and”; a condition that tells them apart may be missing. Identical values can stand only once. The entries are a selection whose mix differs from that of the whole data set. Activity calls are given as the source filed them. Calls follow the shape of the dose curve; as a rule, active = well fitted curve in the direction sought with a large enough effect in the repeat runs; inconclusive = weak or mixed curves; inactive = flat fitted curve, though single readings scatter.

Assay: qHTS assay to test for compound auto fluorescence at 590 nm (red) in HepG2 cells (AID 720674)
Details: HepG2 autofluorescence, red 540/590 nm, 1 h; at 46 µM (top of the series)
From the text: U.S. Tox21 Program National Center for Advancing Translational Sciences [NCATS] NIH Chemical Genomics Center [NCGC] U.S. Environmental Protection Agency [EPA] National Institutes of Environmental Health Sciences [NIEHS] National Toxicology Program [NTP] U.S. Food and Drug Administration [FDA] Tox21 Assay Overview: Compound auto fluorescence often interferes with screening of the compound library against various biological targets and signaling pathways. Some of these compounds may have fluorophoric properties. Such properties may interfere with the assay outputs resulting in false positives and/or negatives. To decrease such complications and ensure the compound activities are relevant in terms of biological response, the Tox21 10K compound library was screened for auto fluorescence. From the fluorophores used as reporter signals in our screening assays, the auto fluorescence equivalencies of compounds against three fluorophores have been evaluated: Triamterene, Fluorescein and Rose Bengal sodium for blue, green and red fluorescence, respectively. The fluorescence intensities were measured using Excitation/Emission wavelengths at 405/460nm, 485/535nm and 540/590nm for blue, green and red labels, respectively. This assay includes the red fluorescence data.
Tox21 Assay Protocol Summary: 2,000 HepG2 cells in 5 uL of culture medium (MEM containing 10% FBS) per well were dispensed into black wall/clear bottom 1536-well plates using a Multidrop Combi Dispenser (ThermoFisher Scientific, Waltham, MA). The assay plates were incubated overnight at 37 C to allow cell attachment to the well bottom, followed by the transfer of 23 nL compound or DMSO vehicle by a pintool work station (Kalypsys , San Diego, CA). After the assay plates were incubated for 1 hr at 37 C and 5% CO2, fluorescence intensities in the assay plates were measured by an Envision (PerkinElmer, Shelton, CT) plate reader using three labels for measuring blue, green and red fluorescence at […] 460, 535 and 590 nm respectively.
% is scaled to controls: 0 for no effect and ±100 for the full control effect.

Compound	fluorescence, relative to Rose Bengal
NC(=O)Nc1ccc([As](=O)(O)O)cc1	inactive: -0.007%

Same assay, conditions: HepG2 autofluorescence, red 540/590 nm, 1 h; at 91.3 µM (top of the series)

Compound	fluorescence, relative to Rose Bengal
NC(=O)Nc1ccc([As](=O)(O)O)cc1	inactive: 0.0908%

Same assay, conditions: HepG2 autofluorescence, red 540/590 nm, 1 h; at 91.3 µM (top of the series) unless noted

Compound	fluorescence, relative to Rose Bengal
O=[N+]([O-])c1ccc(S(=O)(=O)O)c([N+](=O)[O-])c1	inactive: -0.0356%
CN(C(=O)Cc1ccc(Cl)c(Cl)c1)[C@H]1CC[C@@]2(CCCO2)C[C@@H]1N1CCCC1	inactive: 0.0887% [at 46 µM]
CC(C)CCCCCCCOP(OCCCCCCCC(C)C)Oc1ccccc1	inactive: -0.119%
COP(=S)(Cl)OC	inactive: 0.0566%
O=P(Cl)(Cl)c1ccccc1	inactive: -0.13%
O=[As]c1ccccc1 (stereo not drawn)	inactive: -0.217%
CCOP(=S)(CC)Sc1ccccc1 (stereo not drawn)	inactive: -0.0577%
CCCCC(CC)CO[P+](=O)OCC(CC)CCCC (stereo not drawn)	inactive: 0.0002%
N#CSc1ccc([N+](=O)[O-])cc1[N+](=O)[O-]	inactive: 0.317%
O=C1C2CC=CCC2C(=O)N1SC(Cl)(Cl)C(Cl)Cl (stereo not drawn)	inactive: -0.475% and inactive: 0.319%
O=P(Cl)(Oc1ccccc1)Oc1ccccc1	inactive: -0.316%
CC(C)OP(=S)(OC(C)C)SCCNS(=O)(=O)c1ccccc1	inactive: 0.047%
CCCCCCCCCCCCCC[P+](CCCCCC)(CCCCCC)CCCCCC	inactive: -0.249%
CN(C(=O)Cc1cccc2occc12)[C@H]1CC[C@@]2(CCCO2)C[C@@H]1N1CCCC1	inactive: 0.0461%
Cc1cc([N+](=O)[O-])c(O)c([N+](=O)[O-])c1	inactive: -0.247%
CN(C(=O)Cc1ccccc1)[C@H]1CC[C@@]2(CCCO2)C[C@@H]1N1CCCC1	inactive: -0.0163% [at 46 µM]
ClP(Cl)c1ccccc1	inactive: -0.134%
CCNC(C)Cc1ccc2c(c1)OCO2 (stereo not drawn)	inactive: 0.244% [at 95.7 µM]
O=C(OC1CN2CCC1CC2)c1ccccc1 (stereo not drawn)	inactive: -0.264% [at 46 µM]
O=[P+](Oc1ccccc1)Oc1ccccc1	inactive: -0.175%
CCOC(=O)Cl	inactive: 0.21%
Cc1cc([N+](=O)[O-])cc([N+](=O)[O-])c1O	inactive: -0.0746% and inactive: -0.755%
COC(=O)Cl	inactive: 0.194%
O=[p+]1oc2ccccc2c2ccccc21 (stereo not drawn)	inactive: -0.4%
CCCCO[P+](=O)OCCCC	inactive: -0.154% and inactive: -0.173%
CN(N=O)C(=N)N[N+](=O)[O-]	inactive: -0.0991%
